Results published in patent US6511998B2, “Pyrazole carboxamides useful for the treatment of obesity and other disorders” (priority 1999, dated 2003).

Protein sequences, listed by entry. Tags and fused reporters are not part of them.
UniProt Q15761, whole entry: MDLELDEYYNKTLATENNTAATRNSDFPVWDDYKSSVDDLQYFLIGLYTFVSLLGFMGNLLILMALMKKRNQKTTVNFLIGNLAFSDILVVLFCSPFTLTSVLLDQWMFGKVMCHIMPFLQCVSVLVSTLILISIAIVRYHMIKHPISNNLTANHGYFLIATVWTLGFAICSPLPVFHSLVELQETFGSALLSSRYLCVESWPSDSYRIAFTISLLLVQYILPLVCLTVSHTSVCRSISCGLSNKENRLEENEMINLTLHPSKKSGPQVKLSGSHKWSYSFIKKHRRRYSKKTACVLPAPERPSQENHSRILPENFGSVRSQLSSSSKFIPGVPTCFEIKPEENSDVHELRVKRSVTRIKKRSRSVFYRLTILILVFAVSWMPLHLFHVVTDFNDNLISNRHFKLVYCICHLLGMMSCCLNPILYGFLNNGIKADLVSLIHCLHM

Biological target: human neuropeptide Y5 receptor (Homo sapiens, UniProt Q15761)
Experiment: NPY5 HTS centrifugation assay: competition with 125I-PYY for binding to membranes of NPY5-transfected HEK-293 cells
Conditions: read-out: IC50 HNPY5r; inhibition of 125I-PYY binding; values given in μM

IC50: 5 µM
SMILES: Cc1cc(C(=O)Nc2ccccc2-c2cc3ccccc3[nH]2)nn1-c1cccc(C(F)(F)F)c1
